This is an account of results in US5763395A, “Stabilized lanthionine bacteriocin compositions” (Ambi Inc., priority 1995, dated 1998).

A short description of this data set: Nisin stability in topical germicide formulations under stressed conditions (RPHPLC). Particulars: for Residual nisin concentration: 2 weeks at 40° C., nisin formulated at 25 μg/ml, label nisin = water control. The source says: i) Analytical reverse phase high pressure liquid chromatography (RPHPLC). The analyte (nisin) in solution is passed through a column of hydrophic beads to which the nisin tends to bind. The solution flowing through the column is then made progressively more hydrophobic by increasing acetonitrile concentration until it causes the nisin to be released from the beads and eluted from the column. The emergence of the nisin from the column is detected by measuring the absorbance of light at 210 nm by the effluent.
In order to expedite the execution of these experiments the formulations were subjected to "stressed" conditions, ie pH 6 and 40° C.; both intended to accelerate any degradation effects taking place. The stability of nisin in the formulations was evaluated by RPHPLC.
Formulations were prepared with nisin at 25 μg/ml and titrated to pH 6. […]

As to glutathione (oxidized), the Residual nisin concentration is 7.6 µg/mL (T-MAZ 20 BATCH 348) and 14.1 µg/mL (T-MAZ 20 BATCH 357). Further, the “Stabilization of nisin from degradation by sulfur-containing compounds, in words” value (nisin 25 μg/ml, T-MAZ 20, propyleneglycol, 1-propanol, EDTA or citrate, pH 6, 40° C.) is on record as “did not stabilize nisin from degradation”.
